Laboratory results reported in PubChem BioAssay AID588574 (Sanford-Burnham Center for Chemical Genomics, 2011).

Sequences of proteins named here, by UniProt entry; tags and fusion partners are left off.
UniProt P42574, whole entry, looked up: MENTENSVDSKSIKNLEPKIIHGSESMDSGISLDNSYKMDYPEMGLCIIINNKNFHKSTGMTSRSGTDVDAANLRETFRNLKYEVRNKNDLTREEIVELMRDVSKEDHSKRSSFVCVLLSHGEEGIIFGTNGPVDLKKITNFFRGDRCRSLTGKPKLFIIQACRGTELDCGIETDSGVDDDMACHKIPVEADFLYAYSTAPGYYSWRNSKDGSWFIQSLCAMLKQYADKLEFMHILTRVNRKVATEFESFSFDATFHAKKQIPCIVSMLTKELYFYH
UniProt P55211, whole entry, looked up: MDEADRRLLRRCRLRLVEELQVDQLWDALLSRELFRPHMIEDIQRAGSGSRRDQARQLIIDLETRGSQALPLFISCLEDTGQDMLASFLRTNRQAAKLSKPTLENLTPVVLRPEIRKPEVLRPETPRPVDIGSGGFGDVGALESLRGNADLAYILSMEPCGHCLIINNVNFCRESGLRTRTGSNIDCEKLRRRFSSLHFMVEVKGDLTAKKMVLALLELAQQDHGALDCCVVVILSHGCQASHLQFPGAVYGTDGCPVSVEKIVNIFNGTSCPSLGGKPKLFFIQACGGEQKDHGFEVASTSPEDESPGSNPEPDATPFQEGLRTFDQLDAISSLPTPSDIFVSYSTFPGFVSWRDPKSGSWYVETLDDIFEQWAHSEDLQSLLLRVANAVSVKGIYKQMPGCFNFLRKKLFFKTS

Biological target: Caspase-3 (Homo sapiens) + Caspase-9 (Homo sapiens) (UniProt P42574+P55211)
Test: caspase-9/caspase-3 cascade inhibitors, dose response, selectivity assay, biochemical, fluorescence, uHTS hits (AID 588574)
Details: LZ-caspase-9/caspase-3 coupled fluorogenic substrate

For CC1=C2N=C(C=C3N=C(C(C)=C4[N-][C@@](C)([C@@H]5N=C1[C@](C)(CCC(=O)NC[C@@H](C)OP(=O)([O-])O[C@H]1[C@@H](O)[C@@H](n6cnc7cc(C)c(C)cc76)O[C@@H]1CO)[C@H]5CC(N)=O)[C@@](C)(CC(N)=O)[C@@H]4CCC(N)=O)[C@@](C)(CC(N)=O)[C@@H]3CCC(N)=O)C(C)(C)[C@@H]2CCC(N)=O.[C-]#N.[Co+3], the IC50 was 0.437 µM.
